The text below walks through data of US20170217976A1, “6-(AMINO ACID)-MORPHINAN DERIVATIVES IN COMBINATION WITH PERMEATION […] FOR USE AS AN ORALLY, […], TRA[…] NASALLY AD[…]” (C[…], priority 2014, published 2017).

Protein sequences, listed by entry. Tags and fused reporters are not part of them.
UniProt P33535, whole entry: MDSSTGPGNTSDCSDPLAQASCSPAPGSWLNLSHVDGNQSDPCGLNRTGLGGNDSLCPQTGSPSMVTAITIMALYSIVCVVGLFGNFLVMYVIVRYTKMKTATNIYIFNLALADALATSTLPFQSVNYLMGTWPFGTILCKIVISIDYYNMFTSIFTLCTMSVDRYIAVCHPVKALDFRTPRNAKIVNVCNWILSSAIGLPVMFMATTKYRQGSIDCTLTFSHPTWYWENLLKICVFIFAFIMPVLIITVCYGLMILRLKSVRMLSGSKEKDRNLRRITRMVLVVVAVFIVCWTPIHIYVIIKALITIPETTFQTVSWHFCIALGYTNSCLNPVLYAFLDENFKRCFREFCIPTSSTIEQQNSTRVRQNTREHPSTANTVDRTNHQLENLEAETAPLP

The target of the experiment is T1, MOR (Rattus norvegicus, UniProt P33535).
T1 construct: from tissue
The experiment is described as follows: Opioid receptor binding, MOR, rat brain membranes.

[1] abbreviates: Binding Ki (nM) MOR, in vitro binding assay, rat brain membranes.
[2] abbreviates: Binding Ki MOR, Table 1-4, rat brain membranes.

Each structure is given as a SMILES string.

Take `COC12CCC(NC(C)C(=O)O)C3Oc4c(O)ccc5c4C31CCN(C)C2C5` (single isomer, unassigned) [Compound 1]: the Ki by setting is: under setting [1], 0.77 nM; under setting [2], 0.77 nM.

As to `COC12CCC(NC(C)C(=O)O)C3Oc4c(O)ccc5c4C31CCN(C)C2C5` (single isomer, unassigned) [Compound 2], the inhibitory constant (Ki) by setting is: under setting [1], 1.9 nM; under setting [2], 1.9 nM.

Turning to `COC12CCC(NC(C)C(=O)O)C3Oc4c(O)ccc5c4C31CCN(C)C2C5` (single isomer, unassigned) [Compound 53], the affinity under setting [2], expressed as Ki, was 0.69 nM. This counts as sub-nanomolar.

`COC12CCC(NC(C)C(=O)O)C3Oc4c(O)ccc5c4C31CCN(C)C2C5` (single isomer, unassigned) [Compound 54] registered a Ki under setting [2] of 1.48 nM.
